Yeast mating assay B: variants of the scFv Ab-14

Binding partner: SARS-CoV-2 spike HR2 peptide, sequence PDVDLGDISGINAS.

The variants keep the heavy chain, the linker and the frameworks of Ab-14 (scFv order VH, a 15-residue (Gly4Ser)3 linker, VL).
VH: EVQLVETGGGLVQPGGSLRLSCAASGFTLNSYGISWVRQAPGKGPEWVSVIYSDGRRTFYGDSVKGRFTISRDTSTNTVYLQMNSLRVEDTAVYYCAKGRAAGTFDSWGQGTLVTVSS
VL: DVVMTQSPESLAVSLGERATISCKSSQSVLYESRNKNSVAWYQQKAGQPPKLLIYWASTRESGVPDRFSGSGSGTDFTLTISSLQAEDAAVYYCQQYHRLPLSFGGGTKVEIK

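The starting antibody came from a phage panning campaign against this peptide. Designed CDR sequences, proposed from the first random library and measured here. Their group label is 14L_En_Gibbs (En: ensemble of fine-tuned language models; Gibbs: Gibbs sampling). The assay is AlphaSeq: two haploid yeast populations carry antibody and antigen on their surface. After mating in shaken culture at 30 °C for 16 h, diploids were selected and their barcode pairs sequenced. Read counts were normalised to the haploid input and turned into Kd by a linear fit to BCL2-family pairs of known affinity, for each replicate. Each pool was mated in six replicate cultures.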

The parent's light chain CDRs are KSSQSVLYESRNKNSVA, WASTRES, QQYHRLPLS; each variant's own CDRs replace them letter for letter.
The read-out is the apparent dissociation constant on a log10 scale (nM): the lower, the stronger.
An entry "ND" has no value in the source: the pair was not observed among the diploids in that replicate. This suggests poor binding but is not conclusive.
The authors averaged sequences with at least three values out of six and counted those with two or fewer as poor binders.
Values of this round are not directly comparable with the first-round values of the same sequences.
Three control strains display no target. For all light chain designs, 4% of the pairings with them gave a signal, with a median of 2.64 and one signal in twenty below 1.59, so weak values seen in few replicates may be background. The control count says in how many pairings with the empty strains this scFv gave a signal, with their mean in brackets.

CDR-L1	CDR-L2	CDR-L3	replicates, log10 nM	control signals
SMHPFDKAIGKGTQNIA	HVSVRAS	QQYARLPLV	0.56 / 0.54 / 0.25 / 0.21 / 0.43 / 0.50	3/18 (2.62)
NVHALMNHSSEFQQSIA	DEECRDA	QQYERLPLS	1.19 / 2.92 / 2.20 / 1.56 / 1.90 / 1.80	0/18
NMTGIKEMQSNNINNIA	ENNERFQ	QQYWQLPLS	2.19 / 1.19 / 2.17 / 0.73 / 0.71 / 1.51	0/18
HISIKLPGNWYMMDSVA	HSERRAE	QQYARLPLG	0.51 / 0.32 / 0.51 / 0.21 / 0.33 / 0.55	0/18
SLSHMSEGSKNEEASIA	STELGMA	QQYARLPLA	ND / ND / ND / ND / ND / ND	0/18
NFGYALFAEDAKKKSIA	ENTVTEY	QQYSKLPLT	1.51 / 1.42 / 1.55 / 2.11 / 0.76 / 0.90	0/18
SMIPFDNQIMKGTNNIA	HTSVRAS	QQYMRLPFV	0.21 / -0.08 / 0.07 / -0.04 / 0.03 / 0.30	0/18
HMRHEFYGYDNYDKAVA	HANQRHN	QQYSRLPFS	0.85 / 0.54 / 0.83 / 0.49 / 0.64 / 1.02	0/18
ILLQVTTEHGAALNNIA	EGARRLD	QQYARLPLV	0.08 / -0.21 / -0.29 / 0.41 / -0.29 / 0.06	1/18 (1.30)
KIEISNSWHLRGTSAVA	QASTRAA	QQYQRLPLL	0.93 / 1.46 / 0.34 / 1.06 / 0.55 / 1.08	1/18 (2.14)
KVAGMMHQMGTQHQNIA	DMAIKCD	QQYQRLPLH	0.67 / 0.32 / 0.22 / 0.18 / 0.17 / 0.39	2/18 (2.73)
MLWQQMEGFNLVKDAIA	NAEERTG	QQYGRLPLS	ND / 2.64 / 1.26 / 1.41 / 2.10 / 3.70	0/18
HMKDEPGLGPQTYSSVA	HASILEP	QQYYRLPLM	0.69 / 0.61 / 0.34 / 0.35 / 0.19 / 0.76	0/18
TLGSQPTEMRDNKHAVA	DDEARTR	QQYMRLPLS	1.36 / 1.98 / 1.73 / ND / 1.05 / 2.35	0/18
HVHMEMAIWKEILNNIA	DAQMRAA	QQYFRLPLG	ND / ND / ND / ND / ND / ND	0/18
SMAYFQHFGFQQEKAIA	EVATREQ	QQYFRLPLT	ND / ND / ND / ND / ND / ND	0/18
SLHMMPMVGYANNANVA	NASQLFS	QHYFRLPLQ	0.66 / 0.49 / 0.34 / 0.51 / 0.35 / 0.61	2/18 (3.52)
SLAMFEDNYTQLHNSVA	DTANIDI	QQYDRLPLS	ND / ND / ND / ND / ND / ND	1/18 (1.73)
KIDENTFHGANRQNNIA	ESRTVGA	QQYFRLPII	0.79 / 0.35 / 0.55 / 0.59 / 0.74 / 0.58	1/18 (1.99)
KIQMHLNQVAGQEGHVA	DASETWE	QQYFQLPIS	1.08 / 0.91 / 0.81 / 0.60 / 1.64 / 1.28	0/18
ILTGMLNHAGQQQHSIA	HGGIKIE	QQYNRLPLA	1.43 / 1.28 / 0.97 / 2.24 / 2.79 / 1.60	1/18 (2.88)
KLSSHYFESYGERQAVA	ENEATMN	QQYSLLPLS	2.02 / ND / 1.43 / 2.54 / 2.90 / 3.59	1/18 (2.20)
SLDMLLNQVYAYGSNIA	NAQVLVY	QQYYRLPLV	ND / ND / ND / ND / 2.71 / 1.37	0/18
TMLYQPETINGRVNNVA	NGSEAVE	QQYDRLPFV	1.10 / 2.21 / 1.83 / 1.18 / 1.44 / 2.18	0/18
AISFEMMSPHNHSNSVA	SESKRCS	QQYFTLPLS	1.03 / 0.93 / 0.91 / 1.51 / 1.21 / 1.12	2/18 (2.97)
NLKENNVDNQTFYSNIA	EADQREL	QQYYRLPLQ	1.79 / 2.24 / 1.74 / 1.52 / 2.86 / 3.34	1/18 (2.87)
KMMQNKVDGATRQYSIA	ETTKVMA	QQYFHLPFI	0.95 / 1.03 / 0.84 / 0.91 / 1.03 / 1.03	0/18
NVRMSLGYVQNVGSAVA	EASQVEM	QQYYTLPLT	1.74 / 1.18 / 1.82 / 1.44 / 1.66 / 1.37	1/18 (2.26)
KITMSQYNWTSRYQAVA	EQNMRAR	QSYYRLPFS	1.68 / 2.04 / ND / 1.90 / 1.86 / ND	0/18
MFSYNLHDMGANKNSVA	EMNKVTT	QDYHRLPLA	0.41 / 2.46 / ND / 2.16 / ND / 2.09	0/18
RLRLKELGMSYDANQIA	DSENRIK	QQYYRLPLT	0.30 / 0.10 / 0.20 / 0.22 / 0.08 / 0.23	1/18 (2.83)
GIQSQMVGTSAVKENIA	NEAERLE	QQYQRLPLT	-0.03 / -0.21 / 0.06 / -0.38 / -0.19 / 0.01	0/18
KLAMALSVEFGTYHGVA	DADHRAK	QQYNRLPLS	0.58 / 0.68 / 0.45 / 0.53 / 0.54 / 0.41	0/18
KLLQVTTEHGAALNNIA	EGARRND	QQYARLPLV	0.67 / 0.54 / 0.71 / 0.49 / 0.46 / 0.65	1/18 (2.59)
KLNLREEWGTGQWQNIA	EREIAWQ	QQYQSLPLS	1.83 / 1.18 / 1.46 / 0.79 / 1.39 / 2.00	0/18
SIRQVTDDYQATHSAIA	DASQIEP	QQYSILPLS	0.04 / 0.20 / -0.07 / -0.13 / -0.12 / 0.18	2/18 (2.01)
VIKNMMNTMGTQVQNIA	NGAIKAD	QQYQRLPLW	0.20 / -0.09 / -0.04 / -0.03 / 0.18 / 0.16	1/18 (2.17)
VMQMQNDRMQDAAKNIA	GVDMRET	QQYARLPFM	ND / ND / 0.96 / 0.87 / 3.82 / 2.58	0/18
RLRGLNFESGNARNNIA	DAHIHEV	QQYAWLPLC	1.79 / 1.90 / 1.63 / 1.29 / 2.11 / 2.15	1/18 (1.47)
RLTEHTSERAYADASVA	NASTRND	QQYHRLPLE	1.31 / 0.70 / 1.37 / 0.63 / 0.87 / 1.14	0/18
KLAMALSVEFGTYHGVA	DADHRMK	QQYNRLPLS	0.98 / 0.78 / 0.52 / 0.60 / 0.57 / 0.65	2/18 (3.06)
VMQMDNDRMNDATKAIA	DVTMREK	QQYNRLPLM	1.10 / 0.75 / 0.42 / 1.78 / 0.91 / 0.77	1/18 (2.93)
QLDWYNSTATAAKNSVA	GVAHRMN	QQYMRLPLM	0.99 / 1.10 / 1.20 / 1.15 / 0.97 / 1.19	1/18 (3.24)

Excerpt, the final 4 entries:

| CDR-L1 | CDR-L2 | CDR-L3 | replicates, log10 nM | control signals |
|---|---|---|---|---|
| RLTEHTSERAYADASVA | NASTRND | QQYHRLPLE | 1.31 / 0.70 / 1.37 / 0.63 / 0.87 / 1.14 | 0/18 |
| KLAMALSVEFGTYHGVA | DADHRMK | QQYNRLPLS | 0.98 / 0.78 / 0.52 / 0.60 / 0.57 / 0.65 | 2/18 (3.06) |
| VMQMDNDRMNDATKAIA | DVTMREK | QQYNRLPLM | 1.10 / 0.75 / 0.42 / 1.78 / 0.91 / 0.77 | 1/18 (2.93) |
| QLDWYNSTATAAKNSVA | GVAHRMN | QQYMRLPLM | 0.99 / 1.10 / 1.20 / 1.15 / 0.97 / 1.19 | 1/18 (3.24) |

Data: MIT Lincoln Laboratory AlphaSeq set, Li et al. 2023, doi:10.1038/s41467-023-39022-2, as distributed in FLAb.